One assay deals with M-07e cells. The assay is described as follows: M-07e cellular assay (SCF-mediated cell proliferation). Conditions: read-out: M-07e EC50, 72 hours, CellTiter Glo. (ATP-based viability assays read luminescence as a measure of living cells.)
For assay [1], the target named is Recombinant human c-KIT kinase (Homo sapiens (Human), UniProt P10721). The assay is described as follows: c-KIT kinase chemiluminescence assay (ADP-Glo). The assay is classed as biochemical. Conditions: read-out: c-Kit IC50, ATP 50 μM. (In general: In ADP-Glo the light output rises with the ADP produced.)

Amino acid sequences for entries named in this document (tags omitted). Residues count along the entry.
UniProt P10721, 26-976 limits assumed: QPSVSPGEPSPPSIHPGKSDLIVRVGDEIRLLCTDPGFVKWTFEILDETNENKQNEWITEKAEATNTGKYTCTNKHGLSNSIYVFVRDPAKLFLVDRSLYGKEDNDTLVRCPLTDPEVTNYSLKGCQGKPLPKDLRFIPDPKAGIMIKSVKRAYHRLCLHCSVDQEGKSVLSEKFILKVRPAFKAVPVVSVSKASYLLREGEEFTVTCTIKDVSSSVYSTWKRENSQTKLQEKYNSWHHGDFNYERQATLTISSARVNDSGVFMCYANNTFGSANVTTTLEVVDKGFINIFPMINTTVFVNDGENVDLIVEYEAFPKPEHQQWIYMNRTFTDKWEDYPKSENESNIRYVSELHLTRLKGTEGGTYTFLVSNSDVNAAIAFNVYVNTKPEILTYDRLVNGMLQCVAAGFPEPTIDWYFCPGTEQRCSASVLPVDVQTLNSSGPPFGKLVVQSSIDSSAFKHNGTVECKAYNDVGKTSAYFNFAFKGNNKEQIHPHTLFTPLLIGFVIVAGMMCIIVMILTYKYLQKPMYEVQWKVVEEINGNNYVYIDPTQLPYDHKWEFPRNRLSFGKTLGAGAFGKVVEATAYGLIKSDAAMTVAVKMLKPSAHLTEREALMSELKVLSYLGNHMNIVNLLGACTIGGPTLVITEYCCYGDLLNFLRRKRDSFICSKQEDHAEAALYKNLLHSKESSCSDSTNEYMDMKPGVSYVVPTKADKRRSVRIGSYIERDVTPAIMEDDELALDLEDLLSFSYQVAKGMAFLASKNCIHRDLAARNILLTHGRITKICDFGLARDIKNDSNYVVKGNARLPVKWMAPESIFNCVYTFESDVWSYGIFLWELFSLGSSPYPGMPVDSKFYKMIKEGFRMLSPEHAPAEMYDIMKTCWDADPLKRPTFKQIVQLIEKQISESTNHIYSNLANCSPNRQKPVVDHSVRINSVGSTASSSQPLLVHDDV

Some results are limits rather than exact numbers.

By EC50 is commonly meant the concentration at which the effect is half-maximal. As for `O=C(Nc1cc(-c2noc([C@H]3C[C@@H](OC(F)F)C3)n2)ccc1Cl)c1cnn2ccc(N3CC4(C3)CC(O)(C(F)(F)F)C4)cc12`, the EC50 with M-07e cells lay in the range of 0.1 to 1 µM.

For orientation: IC50 means the concentration that inhibits the measured activity by half. In the case of `Cc1ccc(-c2nc([C@H]3C[C@@H]3F)co2)cc1NC(=O)c1cnn2ccc(N3CC4(COC4)C3)cc12`, the 50% effective concentration (EC50) in the assay with M-07e cells is less than 0.1 µM. Moreover, the IC50 in assay [1] was less than 0.1 µM. With `Cc1ccc(-c2nc([C@H]3C[C@@H]3F)c[nH]2)cc1NC(=O)c1cnn2ccc(N3CC4(COC4)C3)cc12`, in the assay with M-07e cells, the EC50 was less than 0.1 µM. The IC50 in assay [1] is less than 0.1 µM.

(Values after patent US20250059174A1, “Pharmaceutical Compounds and Compositions as C-Kit Kinase Inhibitors” (Enanta Pharmaceuticals, Inc., priority 2023, published 2025).)
